{
  "source": "patent US10300029B2",
  "about": "“Organ protection solutions and method of use” (VIRGINIA COMMONWEALTH UNIVERSITY, priority 2011, dated 2019)",
  "tested_on": "rats with severe hemorrhagic shock",
  "assay": "Rodent shock model, acute low volume resuscitation (Example 8)",
  "type": "in vivo, Sprague Dawley rats",
  "procedure": "FIG. 10A-D. A) Diagram showing the shock, resuscitation, and recovery protocol used for these studies. The low volume resuscitation (LVR) time is the time from the start of the low volume resuscitation (after the lactate during hemorrhagic shock reaches 9-10 mM) until the time after the LVR infusion when the lactate rises back up to 9-10 mM again. This immediately precedes full resuscitation. The LVR time is a measure of the tolerance to the low volume state and is a function of the microcirculatory effectiveness since it is dependent on the rate of change of the plasma lactate. […] C) Mean Arterial (blood) Pressure (MAP) measured at 15 min, 30 min, and at the end of the low volume resuscitation period for (6) groups of rats treated with various amounts of PEG-20k, Albumin, Hextend, or Saline as the low volume resuscitation solution. * P<0.05 relative to the other corresponding groups, # P<0.05 relative to all other corresponding values, n=6-10 per group, all values are mean±SD. D) The oncotic reflection coefficient (σd) for PEG-20k was measured in six rats to determine the impermeant and the oncotic effects of this molecule in both the mesenteric vascular bed and the thoracic bed. […] FITC-labelled PEG-20k was measured by excitation-emission spectrofluorometry. […]",
  "data": [
    {"substance": "albumin: most abundant protein in the blood, classical volume expander, pure oncotic agent", "values": [
      {"measurement": "LVR time compared to PEG-20k", "setting": "10% Hextend or 10% albumin", "value": "significantly lower"},
      {"measurement": "mean arterial blood pressure during LVR period", "setting": "compared with saline (10%)", "value": "improved"}
    ]}
  ]
}
